Measured values taken from patent US4826847A, “Beta-blocking oxindole derivatives” (Boehringer Mannheim GmbH, priority 1984, dated 1989).

Test system: livers
Assay: denitration rate relative to isosorbide-5-mononitrate (Vrel): NO2 freed in perfusate of re-perfused rat livers
Details: rat liver perfusion 4 min, 5×10^-5 M/l, NO2 determined in the perfusate; high values = fast denitration

O=[N+]([O-])O[C@H]1CO[C@H]2[C@@H]1OC[C@H]2O[N+](=O)[O-]
Vrel (denitration rate in relation to isosorbide-5-mononitrate): 17.5
